# Apparent affinities of Ab-14 variants for a coronavirus HR2 peptide

The measurements come from Engelhart et al. 2022 (doi:10.1038/s41597-022-01779-4) through the FLAb antibody collection.

Binding partner: SARS-CoV-2 spike HR2 peptide, sequence PDVDLGDISGINAS.

Each scFv is VH, a 15-residue (Gly4Ser)3 linker, VL, as in the parent Ab-14, and differs from it in the CDRs of the light chain only.
VH: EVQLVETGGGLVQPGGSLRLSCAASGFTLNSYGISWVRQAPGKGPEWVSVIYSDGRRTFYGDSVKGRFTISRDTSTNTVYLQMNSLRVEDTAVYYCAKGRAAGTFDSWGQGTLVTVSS
VL: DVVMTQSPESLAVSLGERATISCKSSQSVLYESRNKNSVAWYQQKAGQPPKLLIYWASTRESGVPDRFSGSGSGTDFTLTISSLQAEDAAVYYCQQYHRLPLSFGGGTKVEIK

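The parent was found by panning a naive human phage display library on the peptide. AAYL50 was designed without a model: most single CDR substitutions and a random sample of double and triple ones. Affinity was read by AlphaSeq, a pooled yeast mating assay with surface-displayed partners. Mating (16 h, 30 °C) was followed by selection of diploids and sequencing of their barcodes. Scores were corrected for input abundance and mapped to Kd with protein pairs of known affinity run in the same pool. The assay was run in three technical replicates.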

Positions count from residue 1 of the parent VL; V29E puts E in place of V. Numbers give log10(Kd / nM), so 0 is 1 nM and 3 is 1 µM. Smaller is tighter. A pair that was not seen in that replicate is written "ND"; this usually means weak binding, but a binder can also be missed. In this assay the parent's reference entry averaged 0.65; its copy inside this library read 1.68.

changes	log10 Kd, replicates	control signals
V29E+N35P+Y97I	1.52 1.82 1.80	3/9 (3.97)
S62N+Q95I	ND ND 5.42	1/9 (2.98)
A57V+Q95S+H98T	ND ND ND	1/9 (2.88)
S58E+E61P+H98M	1.25 1.66 1.76	1/9 (3.58)
R34I+R60W	5.00 5.27 ND	2/9 (4.29)
Q27A+A40T+E61A	ND ND ND	0/9
T59W+Q95I+P101W	ND 3.70 4.24	1/9 (3.48)
S38K+R99W+P101E	ND ND ND	0/9
K36P+V39Y+T59H	ND ND ND	0/9
S28L+R34G+Q96K	3.67 5.13 3.10	2/9 (3.97)
Q27Y+S33F+L102H	ND ND ND	0/9
Q27V+Q95H+L100R	ND 3.18 5.43	3/9 (4.24)
N35E+W56D+L102T	-0.10 0.20 0.02	4/9 (4.41)
K24L+S25P	4.14 3.45 3.97	3/9 (4.11)
Q95W+Y97K+S103D	ND ND ND	1/9 (2.94)
V29Q+L30N+E32Y	ND ND ND	5/9 (4.59)
Y31T+S33F+S62N	3.81 ND ND	0/9
L30P+S38D+R99K	1.60 2.09 1.50	0/9
S62R+L100A	1.38 1.31 1.44	2/9 (4.39)
Q27K+E61R+L100E	ND ND ND	0/9
S25A+V39G+L102V	2.89 ND ND	0/9
K24C+S33T+Q95I	ND ND 5.26	1/9 (4.19)
E32M+V39R+Q96F	ND ND ND	0/9
E61H+P101W+S103F	2.47 2.30 2.21	5/9 (3.72)
Q27T+T59I+H98D	0.94 1.23 1.18	1/9 (4.62)
V29K+S33D	3.67 2.43 2.88	1/9 (4.28)
L30P+W56D+E61N	0.50 0.80 0.54	6/9 (4.14)
N35E+S58W+H98V	ND 4.28 ND	1/9 (3.24)
Q27E+L100E+L102I	ND ND ND	1/9 (4.10)
A57S+E61V+S62F	2.66 2.57 2.96	6/9 (4.04)
Y31S+K36I	0.61 0.87 0.75	2/9 (4.22)
S26R+E32H+V39P	ND 5.21 ND	1/9 (5.50)

As a blank, each scFv also met three strains without target: over library AAYL50, 18% of these pairings were detected, typically at 4.19 and seldom below 2.99. Also given: how often the same scFv was detected with the empty control strains, with their mean in brackets.